The values below are quoted from earlier work in paper PMC5437670 (Journal of the American Chemical Society, 2017).

Structures are written as SMILES.

For the data set, the target named is recombinant human GAA (Myozyme), lysosomal α-glucosidase (Homo sapiens, UniProt P10253). Particulars: read-out: app IC50 GAA; literature values; cited from earlier work.

In the case of `OC[C@@H]1[C@@H](O)[C@H](O)[C@@H](O)CN1CCCCCOCC12CC3CC(CC(C3)C1)C2` [AMP-DNM (MZ-21), reference compound], the IC50 was 400 nM.
